“And” between values parts separate entries of the source, which are not always exact repeats. Identical values can stand only once.
Key:
[1] = target: T1, human α1c-adrenergic receptor (Homo sapiens, UniProt P35348); assay: Competition for / saturation of [3H]prazosin binding to membranes of LM(tk-) cells expressing human α1c
T1 sequence (P35348 1-466): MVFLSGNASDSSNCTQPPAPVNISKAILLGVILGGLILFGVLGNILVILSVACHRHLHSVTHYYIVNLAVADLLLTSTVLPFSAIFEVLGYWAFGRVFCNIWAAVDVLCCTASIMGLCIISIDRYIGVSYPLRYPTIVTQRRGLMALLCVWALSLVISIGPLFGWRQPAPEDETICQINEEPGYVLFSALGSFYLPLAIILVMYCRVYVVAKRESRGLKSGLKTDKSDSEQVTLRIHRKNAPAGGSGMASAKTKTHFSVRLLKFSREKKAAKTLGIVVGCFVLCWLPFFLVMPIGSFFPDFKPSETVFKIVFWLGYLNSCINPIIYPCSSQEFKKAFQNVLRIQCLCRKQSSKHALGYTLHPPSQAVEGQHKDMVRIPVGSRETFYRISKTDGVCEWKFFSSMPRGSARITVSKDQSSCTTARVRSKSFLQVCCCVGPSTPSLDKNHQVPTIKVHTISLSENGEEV

[2] = target: T1, human α1c-adrenergic receptor; assay: biochemical
[3] = target: T1, human α1c-adrenergic receptor; details: 10 μM NE, α1c transfected cell line, n=6
[4] = read-out: affinity for the human α1c subtype

With “4-fluoro-4-(8-fluoro-1,3,4,5-tetrahydro-2H-pyrido[4,3-b]indol-2-yl)butyrophenone hydrochloride [Compound A-30360]” the “Human Alpha-1 Adrenergic (pK1) a1C” value [1] was 8.52.

In the case of `COc1ccccc1N1CCN(CCCNc2c(C)c(=O)n(C)c(=O)n2C)CC1` [5-Methyl Urapidil, 5-methylurapidil], the “pKi α1c” value [1] is reported as 8.160 ± 0.11 and the Ki [1, 4] is reported as 7 nM.

`O=C(CCCN1CCC(NC(=O)c2ccccc2)CC1)c1ccc(Cl)cc1` [Compound 7, 1-[3-(4-chlorobenzoyl)propyl]-4-benzamidopiperidine] gave a Ki [2] of 3.8 nM.

`O=C(CCCN1CCC(NC(=O)c2ccccc2)CC1)c1ccccc1` [Compound 9, 1-(3-benzoylpropyl)-4-benzamidopiperidine] showed a Ki [1] of 14.8 nM.

For `O=C(NC1CCN(CCc2c[nH]c3ccccc23)CC1)c1ccccc1` [Indoramin], the Ki [2] was 4.56 nM and 4.47 nM.

Work on `c1ccc2c(CC3=NCCN3)cccc2c1` [Naphazoline] yielded a Ki [2] of 197 nM.

`NC[C@H](O)c1ccc(O)c(O)c1` [Norepinephrine] was tested, and the “increase of [Ca2+]i” value [3] was 224 ± 79 nM.

Compound `COc1ccccc1N1CCN(CCCNc2cc(=O)n(C)c(=O)n2C)CC1` [Urapidil] has a Ki [2] of 103 nM.

With `COc1cccc(OC)c1OCCNCC1COc2ccccc2O1` (stereo not shown) [WB-4101] the “pKi α1c” value [1] was 9.080 ± 0.09 and the Ki [1, 4] was 0.8 nM.

With `Cc1cc(C(C)(C)C)cc(C)c1CC1=NCCN1` [Xylometazoline] the Ki [1] was 31.7 nM and the “fold higher potency at the α1c-AR” value [1] was 52 fold.

— patent US6448011B1, “DNA encoding human alpha 1 adrenergic receptors and uses thereof” (Synaptic Pharmaceutical Corporation, priority 1992, dated 2002)
